From paper PMC12597941 (Frontiers in Pharmacology, 2025)

Assay: Untargeted LC-HRMS metabolite profiling after oral PAC administration
Details: after oral PACs; c = detected in mice plasma
Protocol: Animals to be sacrificed at 6 h (only test item-treated animals) were placed in metabolic cages (650-0100, Nalgene) for the collection of urine. Urine was stabilized with a final concentration of 4 mM NaN3 and stored at 4 °C. At 1 h and 6 h after the administration of the vehicle (1 h only) or test items (1 and 6 h), animals from the respective treatment groups were euthanized by CO2 inhalation. Blood was obtained by cardiac puncture and drawn in lithium-heparin-containing vials for the preparation of plasma by centrifugation (4,000 rpm, 4 °C, 10 min). Plasma was stored at −80 °C until bioanalytical analysis. Samples of the mixed intestinal content were obtained by scraping the small intestine, cecum, and large intestine into a 5-mL tube. Tubes were covered with gaseous N2 and stored at −80 °C.
The supernatant was evaporated to dryness and resuspended in 150 µL 1% FA in H2O/ACN (9/1, v/v) for analysis.
Rat intestinal content was first freeze-dried and finely crushed. […] Ethyl acetate extracts were evaporated to dryness and then resuspended in 300 µL 1% FA in H2O/ACN (9/1, v/v) for untargeted LC-HRMS analysis. […]
Compound discoverer 3.1 (CD, Thermo Fisher Scientific, Waltham, MA, United States of America) was used for untargeted and novel feature detection. […] Then, unknown compounds were detected and grouped with RT tolerance of 0.5 min and 5 ppm mass deviation. […]

In the case of Vanillic acid glucuronide [M05], the “Compartment in which the metabolite was detected” value is reported as “Urine”.
